Experimental data: ChEMBL document CHEMBL4715797, “Structure-Activity Relationships of [des-Arg]Dynorphin A Analogues at the κ Opioid Receptor” (J Med Chem, 2016)

Protein sequences, listed by entry. Tags and fused reporters are not part of them. Lines headed by an entry give the natural chain unless they say otherwise; changes in a name come on top.
UniProt P41145: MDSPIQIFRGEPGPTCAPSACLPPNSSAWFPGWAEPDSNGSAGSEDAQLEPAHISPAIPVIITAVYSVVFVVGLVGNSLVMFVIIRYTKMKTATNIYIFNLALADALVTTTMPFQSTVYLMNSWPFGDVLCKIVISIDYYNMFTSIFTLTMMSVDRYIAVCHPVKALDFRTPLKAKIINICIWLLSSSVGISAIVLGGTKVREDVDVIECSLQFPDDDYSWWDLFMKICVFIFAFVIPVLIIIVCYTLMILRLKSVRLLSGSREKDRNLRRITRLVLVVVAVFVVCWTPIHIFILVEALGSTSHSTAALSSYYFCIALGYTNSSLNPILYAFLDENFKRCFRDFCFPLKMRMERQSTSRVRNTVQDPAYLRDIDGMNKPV

Target: Kappa-type opioid receptor (Homo sapiens, UniProt P41145)
Assay: Agonist activity at human KOR expressed in CHO cell membranes at 10 uM incubated for 1 hr by liquid scintillation counting based [35S]GTP-gamma-S assay
Conditions: Cell membrane, filed as agonist
Outline: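 Frozen KOR-CHO cell pellets are homogenized and spun at 20 000g. 15 µg of membrane protein is incubated with test compound or vehicle and 0.1 nM [35S]GTPγS in 50 mM Tris-HCl pH 7.4 with 100 mM NaCl, 5 mM MgCl2, 1 mM EDTA and 40 µM GDP, for 1 h at 30 °C. Filtration and scintillation counting follow, and the result is expressed as % of U50,488 stimulation.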

CN(C(=O)Cc1ccc(Cl)c(Cl)c1)C1CCCCC1N1CCCC1 (stereo unspecified)
Activity: Active

Calls of active or inactive are those of the source. The rule behind the calls is not given here.
